The source of these data is paper PMC6755983.

The chains behind the UniProt entries cited, without tags or fusion partners. Where a name states a change or a piece, a line headed by the entry shows the natural chain unless it says otherwise.
UniProt O08556: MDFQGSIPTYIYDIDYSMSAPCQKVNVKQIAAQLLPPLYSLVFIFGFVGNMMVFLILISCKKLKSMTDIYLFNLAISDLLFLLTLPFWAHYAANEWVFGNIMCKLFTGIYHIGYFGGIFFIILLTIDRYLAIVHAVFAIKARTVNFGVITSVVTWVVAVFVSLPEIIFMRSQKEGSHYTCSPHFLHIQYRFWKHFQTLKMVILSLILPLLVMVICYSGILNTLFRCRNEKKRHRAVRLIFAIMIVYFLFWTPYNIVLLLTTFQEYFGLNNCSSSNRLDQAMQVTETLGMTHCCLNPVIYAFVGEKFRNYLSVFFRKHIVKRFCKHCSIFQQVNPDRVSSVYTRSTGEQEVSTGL

In this assay the target is CCR5 receptor on rat bone marrow-derived macrophages (rat (endogenous in bone marrow-derived macrophages)) (UniProt O08556).

Consider “CCL5 secreted into GH3-Aip-KD cell-conditioned media (from UniProt P50231 25-92) (ligand)”, for which the macrophage migration towards GH3-Aip-KD-conditioned media, macrophages treated with maraviroc (200 nM, 24 h) against vehicle turned out to be 50%.
